Values joined by “and” are separate entries in the source; they are usually repeats but may differ in a detail not shown here. Equal entries are not always repeated. Where two headings read alike, the source gives them in different places.

Chains of the proteins cited; added tags and fusions are not shown.
UniProt P16390, whole entry: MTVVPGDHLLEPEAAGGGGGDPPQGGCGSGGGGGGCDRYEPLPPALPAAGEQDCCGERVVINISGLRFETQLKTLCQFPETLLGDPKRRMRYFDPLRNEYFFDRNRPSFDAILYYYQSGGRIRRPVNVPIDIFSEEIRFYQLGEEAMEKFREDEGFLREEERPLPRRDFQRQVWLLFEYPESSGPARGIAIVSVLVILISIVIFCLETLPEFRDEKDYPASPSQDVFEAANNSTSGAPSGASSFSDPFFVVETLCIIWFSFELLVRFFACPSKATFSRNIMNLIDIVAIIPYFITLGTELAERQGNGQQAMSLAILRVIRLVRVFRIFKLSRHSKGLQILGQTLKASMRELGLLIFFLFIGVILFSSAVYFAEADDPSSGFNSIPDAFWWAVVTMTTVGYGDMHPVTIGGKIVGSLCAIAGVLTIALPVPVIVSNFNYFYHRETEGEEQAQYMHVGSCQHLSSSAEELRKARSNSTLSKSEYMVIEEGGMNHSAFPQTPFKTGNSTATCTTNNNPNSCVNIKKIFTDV

The values that follow come from patent US9878058B2, “SHK-based pharmaceutical compositions and methods of manufacturing and using the same” (Kineta One, LLC, priority 2011, dated 2018).

The target of one data set is T1, Kv1.3 (Mus musculus, UniProt P16390).
T1 construct: expressed in transfected cells
The experiment in a line: Whole-cell patch-clamp block of Kv1.3 currents in stable Kv1.3-transfected cell lines. In kind it is cell-based. The text has this:
FIGS. 3A and 3B show a comparison of the Kv1.3 channel-blocking potency of ShK-186 and two labeled analogs, ShK-221-gadolinium (ShK-221-Gd) and ShK-221-indium (ShK-221-In): (FIG. 3A) Representative whole-cell Kv1.3 currents in the absence and presence of ShK-221-Gd. (FIG. 3B) Dose-response curve showing the effect of ShK-186, ShK-221-Gd and ShK-221-In on Kv1.3 currents. Stable Kv1.3-transfected cell lines were used for this study (Beeton, et al. Mol Pharmacol 67:1369-1381 (2005), incorporated by reference herein for its teachings regarding the same). Electrophysiological recordings were carried out in the whole-cell configuration of the patch-clamp technique as described (Beeton, et al. 2005 and Wolff, H, et al., Proc. Natl. Acad. Sci. USA. 97:8151-6 (2000), incorporated by reference herein for its teachings regarding the same). The external solution was sodium Ringer and the pipette solution was KF (300 mOsm). Kv1.3 currents were elicited by 200-ms depolarizing pulses from a holding potential of −80 to 40 mV. ShK-186, ShK-221-Gd and ShK-221-In were each tested at several concentrations. The reduction in peak current at 40 mV for each concentration was used to generate a dose-response curve using Origin software (OriginLab Corp., Northampton, Mass.).
For orientation: In patch-clamp work, channel activity is measured electrically.

Data set [1] in a line: Biodistribution of 111In-ShK-221 (SPECT/CT, whole blood radioactivity) after single subcutaneous injection, rat. In kind it is in vivo, Sprague Dawley rat. As to conditions: for half-life: Sprague Dawley [Crl:CD® SD], injection site, 100 μg/kg s.c.; for tissue uptake: during the first hour. Here is the method: Animals. Sprague Dawley [Crl:CD® SD] rats (6-9 weeks old) were purchased from Charles River Laboratories (Wilmington, Mass., USA) and housed in a temperature (64-79° C.) and humidity (30-70%) controlled facility. Food and water were ad libitum.
(§1) SPECT/CT scanning of radiolabeled ShK-221. ShK-221 (100 μg) was radiolabelled with 2 mCi 111 Indium chloride (GE Healthcare, Arlington Heights, Ill. USA) in a 300 μL reaction containing 50 mM sodium acetate, pH5.0 for 30 min at 95° C. The reaction was quenched by the addition of EDTA to a final concentration of 50 mM, and the radiolabeling efficiency was assessed by reverse-phase HPLC (Luna 5μ C18(2) 100 A 250×4.6 mm column, Phenomenex, Torrance, Calif. USA) on an Agilent 1100 system using an IN/US Systems Gamma RAM Model 4 radio-HPLC detector (LabLogic Systems, Brandon, Fla. USA). The labeling efficiency varied from 89-98% by this method. SPECT/CT scanning (NanoSPECT/CT Preclinical Imager, Mediso, Budapest, Hungary) was carried out on anesthetized animals in four 15 minute scans during the first hour and one scan each at 4, 8, 24, 48, 72, 120 and 160 hours post dose. The individual projection frame time for each helical SPECT was set such that the duration of each scan would last for approximately 15 to 45 minutes (varying by time-point to account for isotope decay) and allow for significant collection of statistics within each frame. The characteristic peaks detected from the spectra for 111In were 245 and 171 keV (primary and secondary, respectively). The resulting projection data were reconstructed after each scan using an iterative model that takes advantage of the pinhole geometry to achieve a resolution of approximately 2 mm.
(§2) Approximately 10 μL blood samples were collected after each scan and the amount of radioactivity in the sample was measured using a Wallac Wizard 1470 scintillation counter (Perkin Elmer, Waltham, Mass. USA). Drug concentrations were computed by taking account of the specific activity of the administered dose, the half-life of 111In (67.3 hours) and the counting efficiency of the instrument.
(§3) Statistical and computational analysis. Statistical analysis was carried out using the paired t-test. Goodness of model fit was determined using the R^2 statistic. Pharmacokinetic calculations were as follows: Cmax and Tmax were as observed in the dataset. AUC was computed using a linear trapezoidal method. The terminal elimination half-life was computed from the slope of the regression with the best adjusted R^2 value. AUCt-∞ was calculated by dividing the last observed drug concentration by the terminal elimination slope.
(§4) Results of ADME studies with a radiolabeled analog of ShK-186. ShK-186 contains a single iodinatable tyrosine at position 23. However, iodine incorporation into the ring, which is predicted to interact within the pore region of the Kv1.3 channel (Pennington et al., Biochemistry 35:16407-16411, 1996), results in disruption of the channel binding properties of the drug. The amino terminus of ShK-198 was therefore modified with a six-carbon linker attached via a peptide bond to one of the carboxylic acids of a DOTA chelate (FIG. 2A). […] The radiolabeling efficiency ranged from 89-98% over the series of experiments as determined by HPLC. Biodistribution of radiolabeled ShK-221 was evaluated by SPECT imaging continuously for the first hour post-dose, and then at 4, 8, 24, 48, 72, 120, and 160 h. Background levels in the detection system were approximately 0.1 μCi/m^3 (˜5 ng/m^3 of ShK-221 at the initial time point and 26 ng/m^3 at the last time point). Blood samples were collected following each scan, and total radioactivity in whole blood was measured by scintillation counting. Computed tomography was performed at each time point to enable colocalization of the radiolabel with key anatomical structures.

Data set [2] is described as follows: Biodistribution of 111In-ShK-221 (SPECT/CT, whole blood radioactivity) after single subcutaneous injection, monkey. It is filed as in vivo, squirrel monkey (Saimiri boliviensis). As to conditions: for Maximum Scan Period / Maximum concentration in tissue / half-life: 35 μg/kg s.c.; for half-life: injection site. As to the method:
Non-naïve squirrel monkeys (Saimiri boliviensis) were between 2 and 5 years of age and were transferred from the MPI Research (Mattawan, Mich., USA) stock colony. The squirrel monkey was of Bolivian origin and provided by the University of Texas MD Anderson Cancer Center (Houston, Tex. USA). Animals were housed individually in stainless steel cages in an environmentally controlled room. The monkeys were provided environmental enrichment; fluorescent lighting was provided 12 hours per day. Temperature was maintained between 64 and 84° C.; humidity was 30-70%. Animals were provided Certified Primate Diet (PMI Nutrition International, Inc., St. Louis, Mo., USA) twice daily. Primatreats® and other enrichment foods were provided on a regular basis. Water was available ad libitum.
as §1, §2, §3
as §4, with “Background levels in the detection system were approximately 0.1 μCi/m^3 (˜5 ng/m^3 of ShK-221 at the initial time point and 26 ng/m^3 at the last time point). Blood samples were collected following each scan, and total radioactivity in whole blood was measured by scintillation counting. Computed tomography was performed at each time point to enable colocalization of the radiolabel with key anatomical structures.” left out

As usually defined, the IC50 is the concentration needed to halve the response being measured. As for `CC[C@H](C)[C@@H]1NC(=O)[C@@H](NC(=O)[C@H](CO)NC(=O)[C@H](CCCNC(=N)N)NC(=O)COCCOCCNC(=O)[C@@H](N)Cc2ccc(OP(=O)(O)O)cc2)CSSC[C@@H](C(N)=O)NC(=O)[C@H]([C@@H](C)O)NC(=O)CNC(=O)[C@@H]2CSSC[C@@H]3NC(=O)[C@H](CCC(N)=O)NC(=O)[C@H](Cc4ccccc4)NC(=O)[C@H](C)NC(=O)[C@H]([C@@H](C)O)NC(=O)[C@H](CSSC[C@H](NC(=O)[C@H](Cc4ccccc4)NC(=O)[C@H](CO)NC(=O)[C@H](CC(C)C)NC(=O)[C@H](CCCNC(=N)N)NC(=O)[C@H](Cc4ccc(O)cc4)NC(=O)[C@H](CCCCN)NC(=O)[C@H](CCSC)NC(=O)[C@H](CO)NC(=O)[C@H](Cc4c[nH]cn4)NC(=O)[C@H](CCCCN)NC3=O)C(=O)N[C@@H](CCCNC(=N)N)C(=O)N[C@@H](CCCCN)C(=O)N[C@@H]([C@@H](C)O)C(=O)N2)NC(=O)[C@H](CCCNC(=N)N)NC(=O)[C@H](CO)NC(=O)[C@H](CCCCN)NC(=O)[C@@H]2CCCN2C(=O)[C@H]([C@@H](C)CC)NC(=O)[C@H]([C@@H](C)O)NC(=O)[C@H](CC(=O)O)NC1=O` [ShK-186], the IC50 on Kv1.3 came to 0.069 ± 0.00401 nM.

One may read the half-life as the time needed for the level to fall by half in the phase considered. For `CC[C@H](C)[C@@H]1NC(=O)[C@@H](NC(=O)[C@H](CO)NC(=O)[C@H](CCCNC(=N)N)NC(=O)COCCOCCNC(=O)[C@H](Cc2ccc(O)cc2)NC(=O)CCCCCNC(=O)CN2CCN(CC(=O)O)CCN(CC(=O)O)CCN(CC(=O)O)CC2)CSSC[C@@H](C(N)=O)NC(=O)[C@H]([C@@H](C)O)NC(=O)CNC(=O)[C@@H]2CSSC[C@@H]3NC(=O)[C@H](CCC(N)=O)NC(=O)[C@H](Cc4ccccc4)NC(=O)[C@H](C)NC(=O)[C@H]([C@@H](C)O)NC(=O)[C@H](CSSC[C@H](NC(=O)[C@H](Cc4ccccc4)NC(=O)[C@H](CO)NC(=O)[C@H](CC(C)C)NC(=O)[C@H](CCCNC(=N)N)NC(=O)[C@H](Cc4ccc(O)cc4)NC(=O)[C@H](CCCCN)NC(=O)[C@H](CCSC)NC(=O)[C@H](CO)NC(=O)[C@H](Cc4c[nH]cn4)NC(=O)[C@H](CCCCN)NC3=O)C(=O)N[C@@H](CCCNC(=N)N)C(=O)N[C@@H](CCCCN)C(=O)N[C@@H]([C@@H](C)O)C(=O)N2)NC(=O)[C@H](CCCNC(=N)N)NC(=O)[C@H](CO)NC(=O)[C@H](CCCCN)NC(=O)[C@@H]2CCCN2C(=O)[C@H]([C@@H](C)CC)NC(=O)[C@H]([C@@H](C)O)NC(=O)[C@H](CC(=O)O)NC1=O` [^111In-ShK-221, metal not drawn], the “Duration of therapeutically meaningful blood concentrations after a single dose” value in data set [1] is listed as “up to 5 days”; in data set [2] (monkey) it was ≤ 7 days. Moreover, the “Time drug levels remained above ~200 pM in blood” value in data set [1] is reported as ~3 days; in data set [2] (monkey), “approximately 7 days”. In addition, the “Drug concentration in whole blood” value in data set [1] (1 hour post dose of 100 μg/kg) was “approximately 14 nM”; in data set [2] (monkey, 1 hour after 35 μg/kg), “approximately 15 nM”. Also, the half-life is 1 to 1.5 h in data set [1] (sc, 100 ug/kg, read-out: Injection site initial half-life); > 48 h in data set [1] (sc, 100 ug/kg, read-out: Injection site terminal half-life); 1 to 1.5 h in data set [2] (monkey, sc, 35 ug/kg, monkey, read-out: Injection site initial half-life); > 48 h in data set [2] (monkey, sc, 35 ug/kg, monkey, read-out: Injection site terminal half-life). Further, the tissue uptake in data set [1] (Sprague Dawley, bladder, sc, 100 ug/kg, total radioactivity, read-out: Radioactive label in bladder) worked out at 9.4 %ID/g; in data set [1] (Sprague Dawley, kidney, sc, 100 ug/kg, total radioactivity, read-out: Radioactive label in kidney) it was 2.9 %ID/g; in data set [1] (Sprague Dawley, liver, sc, 100 ug/kg, total radioactivity, read-out: Radioactive label in liver), 0.4 %ID/g. In addition, the tissue uptake dose in data set [1] (Sprague Dawley, bladder, sc, 100 ug/kg, total radioactivity, read-out: Radioactivity in bladder at earliest time points) worked out at 17 %ID; in data set [2] (monkey, bladder, sc, 35 ug/kg, total radioactivity, read-out: Radioactivity in bladder at earliest time points), 1 %ID. In addition, the “Time 80% of Kv1.3 channels in whole blood expected to be bound by drug” value in data set [1] (post-dose) was 3 to 5 days; in data set [2] (monkey, post-dose), “approximately 5 days”. Besides, the “Time blood concentration above 80% saturation concentration (233 pM)” value in data set [2] (monkey (FIG. 1F legend, monkey and rat)) came out at 120 hours. The “Maximum Scan Period” value in data set [2] (monkey, Bladder) is 0.75 to 1 h and 0.75 to 1.0 h; in data set [2] (monkey, Brain) it was 0.75 to 1.0 h; in data set [2] (monkey, Heart), 0.75 to 1.0 h; in data set [2] (monkey, Injection Site), 0 to 0.25 h; in data set [2] (monkey, Kidneys) it was 0.75 to 1.0 h; in data set [2] (monkey, Liver), 0.75 to 1 h and 0.75 to 1.0 h. Further, the “Maximum Scan Period” value in data set [2] (monkey, Muscle) was in the range of 0.5 to 0.75 h. Further, the “Maximum concentration in tissue” value in data set [2] (monkey, Bladder) was 0.34 % injected dose/g and 0.338 % injected dose/g; in data set [2] (monkey, Heart), < 0.1 % injected dose/g and 0.093 % injected dose/g; in data set [2] (monkey, Injection Site), 17.3 % injected dose/g; in data set [2] (monkey, Liver) it was 0.166 % injected dose/g.
